These results are taken from patent US8344177B2, “Albumin binding molecules and uses thereof” (Philochem AG, priority 2006, dated 2013).

Protein sequences, listed by entry. Tags and fused reporters are not part of them. Residues count along the entry.
UniProt P07724, 25-608 limits assumed: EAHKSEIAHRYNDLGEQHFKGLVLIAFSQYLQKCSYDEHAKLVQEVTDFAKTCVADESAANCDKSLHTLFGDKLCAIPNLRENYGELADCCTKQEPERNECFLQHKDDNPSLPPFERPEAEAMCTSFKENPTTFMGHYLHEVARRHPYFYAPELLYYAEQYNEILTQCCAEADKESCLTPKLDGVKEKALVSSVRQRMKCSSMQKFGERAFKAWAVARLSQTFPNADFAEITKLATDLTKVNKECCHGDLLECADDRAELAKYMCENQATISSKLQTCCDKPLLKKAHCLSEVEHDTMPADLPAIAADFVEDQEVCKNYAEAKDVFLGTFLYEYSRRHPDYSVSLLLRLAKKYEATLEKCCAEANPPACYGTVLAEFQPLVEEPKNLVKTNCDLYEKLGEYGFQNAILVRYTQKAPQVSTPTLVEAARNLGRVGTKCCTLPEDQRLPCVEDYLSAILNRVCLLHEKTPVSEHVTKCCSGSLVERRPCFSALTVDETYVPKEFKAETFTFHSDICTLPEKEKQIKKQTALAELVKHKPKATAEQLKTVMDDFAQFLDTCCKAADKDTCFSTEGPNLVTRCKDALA
UniProt P02770, 25-608 limits assumed: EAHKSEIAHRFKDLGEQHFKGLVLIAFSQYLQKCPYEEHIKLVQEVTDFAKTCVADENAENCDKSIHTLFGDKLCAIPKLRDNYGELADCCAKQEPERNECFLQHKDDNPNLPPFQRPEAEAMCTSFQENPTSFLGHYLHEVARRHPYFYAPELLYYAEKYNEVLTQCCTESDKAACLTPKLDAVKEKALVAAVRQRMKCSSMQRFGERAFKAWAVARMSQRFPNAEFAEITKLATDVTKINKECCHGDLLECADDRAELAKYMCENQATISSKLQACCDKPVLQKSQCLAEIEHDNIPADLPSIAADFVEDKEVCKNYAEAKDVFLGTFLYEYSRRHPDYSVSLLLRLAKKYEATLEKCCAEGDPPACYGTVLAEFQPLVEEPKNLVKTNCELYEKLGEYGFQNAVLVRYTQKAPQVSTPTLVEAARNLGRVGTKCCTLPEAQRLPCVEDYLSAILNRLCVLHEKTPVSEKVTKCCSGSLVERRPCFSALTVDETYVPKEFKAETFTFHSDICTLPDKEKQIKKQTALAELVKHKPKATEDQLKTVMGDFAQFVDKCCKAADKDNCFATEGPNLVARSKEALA
UniProt P02768, 25-609 limits assumed: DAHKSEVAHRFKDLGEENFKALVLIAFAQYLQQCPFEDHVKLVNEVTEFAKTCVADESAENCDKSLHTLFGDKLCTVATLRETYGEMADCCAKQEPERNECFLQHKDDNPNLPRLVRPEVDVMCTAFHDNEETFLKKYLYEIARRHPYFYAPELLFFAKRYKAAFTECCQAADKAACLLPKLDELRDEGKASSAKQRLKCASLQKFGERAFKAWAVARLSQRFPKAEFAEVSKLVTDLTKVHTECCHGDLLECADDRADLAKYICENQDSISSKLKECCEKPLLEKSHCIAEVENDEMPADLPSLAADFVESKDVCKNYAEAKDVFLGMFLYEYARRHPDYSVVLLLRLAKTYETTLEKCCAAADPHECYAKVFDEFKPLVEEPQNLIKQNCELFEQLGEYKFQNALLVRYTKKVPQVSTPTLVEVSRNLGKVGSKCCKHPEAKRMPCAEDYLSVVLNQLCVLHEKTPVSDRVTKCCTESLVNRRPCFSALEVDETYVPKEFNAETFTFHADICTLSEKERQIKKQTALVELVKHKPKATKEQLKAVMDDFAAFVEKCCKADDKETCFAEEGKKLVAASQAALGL

In data set [1] the target is Murine serum albumin (Mus musculus, UniProt P07724). Put plainly: Isothermal titration calorimetry (ITC), murine serum albumin. Conditions: read-out: dissociation constant Kd, two separate measurements. On the procedure: (§1) The binding experiments by ITC were performed following the procedure of reference 34. 1×2 μl, followed by 29×20 μl, of 428-derivative were injected into 1.8 ml of human serum albumin. All ITC measurements were carried out at concentrations of 50-100 μM protein and 0.5-1 mM conjugate, in PBS, 2% DMSO at 37° C. […] This confirmed the desired characteristics of a universal “chemical handle” that may used to conjugate a wide range of agents to the compounds of the invention. 428-ε-Lys-α-NHAc also bound the serum albumin of other species. Murine serum albumin was recognised with similar affinity (Kd=3.7 μM and 3.6 μM in two separate measurements) whereas the affinity towards rat serum albumin was 6× lower (Kd=28 μM).
Generally, isothermal titration calorimetry measurements were performed using a VP-ITC instrument (Microcal). Fatty acid free HSA (Sigma, A1887) or fatty acid free MSA (A1056) was dissolved in PBS, 2% DMSO and dialyzed against the identical buffer. The concentration of protein for the experiment varied between 30 μM to 1 mM. The experiments were generally performed by titrating serum albumin with the binding molecules. HSA or MSA was titrated with a solution of binding molecule roughly ten fold higher in concentration than the protein solution in PBS, 2% DMSO at 37° C. […] The precise concentration of binding molecule was determined by HPLC/UV. […]
A general note: Isothermal titration calorimetry measures the heat released or taken up as one component is titrated into another.

The target of data set [2] is rat serum albumin (Rattus norvegicus, UniProt P02770). The experiment in a line: Isothermal titration calorimetry (ITC), rat serum albumin. As for the experimental part: as §1
Data set [3] concerns the target T1, human serum albumin (Homo sapiens, UniProt P02768). The experiment in a line: Isothermal titration calorimetry (ITC), human serum albumin. As for the experimental part: as §1
Generally, isothermal titration calorimetry measurements were performed using a VP-ITC instrument (Microcal). Fatty acid free HSA (Sigma, A1887) or fatty acid free MSA (A1056) was dissolved in PBS, 2% DMSO and dialyzed against the identical buffer. The concentration of protein for the experiment varied between 30 μM to 1 mM. The experiments were generally performed by titrating serum albumin with the binding molecules. HSA or MSA was titrated with a solution of binding molecule roughly ten fold higher in concentration than the protein solution in PBS, 2% DMSO at 37° C. Typically, titrations were performed until a ratio of 2:1 of ligand to binding sites on protein was reached. Ligands were dissolved in the dialysis buffer. The precise concentration of binding molecule was determined by HPLC/UV. The resulting titration curves were processed and fitted with the Origin 7 software (Microcal) to obtain Kd and ΔH values.

Data set [4] concerns the target HSA (Homo sapiens, UniProt P02768). Put plainly: Fluorescence polarisation with increasing amounts of HSA. Particulars: read-out: dissociation constant, 100 nM compound, PBS, 1 h at 25° C. On the procedure:
100 nM of 428-D-Lys-FAM, 622-D-Lys-FAM and, for comparison, of fluorescein and of phenethylamine-FAM were incubated with increasing amounts of HSA in PBS for 1 h at 25° C. The fluorescence polarization was determined by excitation at 485 nm and measurement at 535 nm.
(In general: Fluorescence polarisation rises when a labelled molecule tumbles more slowly, as on binding a larger partner.)

Data set [5] in a line: Pharmacokinetic profiles of fluorescein and FAM derivatives in mouse (LC/MS/MS of plasma). Conditions: mice, 20 nmol into the tail vein. The class given is in vivo, 129SvPas mice. As for the experimental part:
In a further in vivo experiment, the pharmacokinetic properties of fluorescein, phenethylamine-FAM, 428-D-Lys-FAM, and 622-D-Lys-FAM were measured and compared. Clearance profiles for the four compounds differed distinctly (FIG. 14).
Pharmacokinetic analyses were performed under the Project Licenses 198/2005 of the Veterinaramt des Kantons Zürich (issued to Dario Neri). 129SvPas mice were injected into the tail vein with 20 nmol of fluorescein, Phenethylamine-FAM, 428-D-Lys-FAM, or 622-D-Lys-FAM dissolved in 100 μl of 100 mM Tris/HCl, 105 mM NaCl, pH 8.2 (2 mice each). 20-30 μl blood samples were taken from the vena saphena with EDTA coated capillaries (Sarstedt) 1, 5, 15, 30, 60, 120, 240, 360, 480 and 1440 minutes after injection and centrifuged. 5-10 μl of plasma were mixed with 40 μl of 0.1% trifluoroacetic acid and 200 μl of ethanol and incubated on ice for 1 hour. After one hour the samples were centrifuged to remove the precipitated proteins. The supernatant was dried under vacuum and subsequently redissolved in 50 μl of DMSO/H2O. 40 μl were injected into an LC/MS/MS system (Micromass Quattro micro API) and run on a linear gradient from in 0.1% HCOOH from 5% to 95% acetonitrile in ten minutes on a Waters XTerra MS C18 column ([…], 1×50 mm) while observing the daughter ions with m/z of 287.1 and 202.1 of the parent ion 333.1 for fluorescein, with m/z of 287.3 and 332.3 of the parent ion 480.2 for Phenethylamine-FAM, with m/z of 287.3, 377.2 and 505.2 of the parent ion 777.1 for 428-D-Lys-FAM, and with m/z of 287.3 and 505.4 of the parent ion 651.3 for 622-D-Lys-FAM. Comparing the area under the curve with a previously obtained dilution series of fluorescein and 428-D-Lys-FAM in plasma with identical sample preparation allowed the quantification of the molecules.

Data set [6] has as its target T1, human serum albumin. The experiment in a line: Electro-mobility shift assay. Particulars: 10 μM compound preincubated with 100 μM HSA or human serum (diluted 1/5). As for the experimental part:
An electro-mobility shift assay was carried out following the general protocol of reference 35. 10 μM fluorescein or 10 μM 428-ε-Lys-α-NH-FITC were each preincubated in 10 ul, in PBS buffer, with either 100 μM human serum albumin or human serum (diluted 1/5). The assay incubation time was 30 min. Polyacrylamide gel electrophoresis, was carried out using a 20%-acrylamide gel preparation, TBE (Tris/Borate/EDTA) buffer, and a sample loading volume of 10 ul in 5% sucrose. The running conditions were 180 V/40 min.

Data set [7] can be described thus: Pharmacokinetic profile of 428-ε-Lys-α-NH-FITC vs. fluorescein in mice (LC/MS/MS of serum). It counts as in vivo, 129SV mice. Conditions: injection of 100 μl of 170 μM solution. On the procedure:
The pharmacokinetic properties of conjugates of the invention are evaluated by injection of both said conjugate and the corresponding unconjugated agent (i.e. the agent that has not been modified by a compound of the invention) into mice and subsequent sampling of the conjugate and agent concentrations. Conjugate and agent concentrations are determined by Liquid Chromatography/Mass Spectrometry/Mass Spectrometry (LC-MS/MS) according to techniques known in the art.
100 μl of a 170 μM solution of fluorescein and of 428-ε-Lys-α-NH-FITC were injected into 2 pairs of immunocompetent 129SV mice.

The mark [8] stands for this setting: read-out: dissociation constant Kd, PBS, 2% DMSO, 37° C., to a single binding site on human serum albumin.

Structures are written as SMILES. Where “and” joins values, the source holds several entries; their conditions need not be identical. Equal values may be shown once. Read-outs that look alike come from different tables or passages of the source.

Regarding `CC(=O)N[C@H](CCCCNC(=O)CCCc1ccc(I)cc1)C(=O)O`, the Kd in data set [1] was 3.7 µM and 3.6 µM; in data set [2] (read-out: dissociation constant Kd), 28 µM. In addition, the affinity towards rat serum albumin, fold lower than for human/murine serum albumin in data set [2] was 6 ×.
Consider `O=C(O)CCCCCCNC(=O)CCCc1ccc(I)cc1`, for which, in data set [3] (read-out: dissociation constant Kd, PBS, 2% DMSO, 37° C., to two binding sites comparable in affinity), the Kd came out at 3 µM.
For `CCCC(=O)NCCCC[C@@H](NC(=O)CCCCCCNC(=O)CCCc1ccc(I)cc1)C(=O)O`, the Kd in data set [3] (setting [8]) came to 8 µM.
Still for that read-out and setting: then `CC(=O)NCCCC[C@@H](NC(=O)CCCCCCNC(=O)CCCc1ccc(I)cc1)C(=O)O`, with 8 µM; and `CCCC(=O)N[C@H](CCCCNC(=O)CCCc1ccc(I)cc1)C(=O)O`, with 5.5 µM.
For the compound `O=C(CCCc1ccccc1)NCCCC[C@@H](NC(=O)c1ccc2c(c1)C(=O)OC21c2ccc(O)cc2Oc2cc(O)ccc21)C(=O)O`, the Kd in data set [4] was 6.6 µM. For the same compound, in data set [5], the “t1/2, α” value was 5.3 min; the “t1/2, β” value was 1.67 h; the α-phase is recorded as 98%.
`O=C(CCCc1ccc(I)cc1)NCCCC[C@@H](NC(=S)Nc1ccc2c(c1)C(=O)OC21c2ccc(O)cc2Oc2cc(O)ccc21)C(=O)O`: the Kd in data set [3] (read-out: dissociation constant Kd, PBS, 2% DMSO, 37° C.) was determined as 6.5 µM. Further, the “binding and specificity in electro-mobility shift” value in data set [6] was “demonstrated the binding of 428-ε-Lys-α-NH-FITC and its specificity for HSA”. In addition, in data set [7], the “t1/2,α (serum, biphasic clearance)” value amounted to 0.375 h and the “t1/2,β (serum, biphasic clearance)” value was 5.67 h.
